Test results taken from patent US6900343B1, “Method for the purification of metallocenes” (Basell Polyolefine GmbH, priority 1998, dated 2005).

Assay: Solubility comparison in toluene at room temperature

With CC1=Cc2c(ccc3ccccc23)[C]12[Si](C)(C)[C]1(C(C)=Cc3c1ccc1ccccc31)[Zr]2([Cl])[O]c1cc(C)ccc1C(C)C (stereo not shown) [Compound 3, Dimethylsilanediylbis(2-methyl-4,5-benzoindenyl)zirconium Monochloride mono(2-isopropyl-5-methylphenoxide)] the solubility was “about 18 mmol/l”.
